In patent publication US6503881B2 (priority 1996, dated 2003):
Where two headings read alike, the source gives them in different places.

How the values were obtained:
[1] = type: in vitro ADME, rabbit; details: inhibitor at 100 μM; 3 hrs at 22° C.
Protocol: A 1 mg/mL solution of MBI 11B7CN in isotonic saline is added to freshly prepared heat-inactivated rabbit serum, to give a final peptide concentration of 100 μg/mL and is incubated at 32° C.
A series of peptide stability studies are performed to investigate the action of protease inhibitors on peptide degradation. Peptide is added to rabbit serum or plasma, either with or without protease inhibitors, then incubated at 22° C. for 3 hrs. Protease inhibitors tested include amastatin, bestatin, COMPLETE protease inhibitor cocktail, leupeptin, pepstatin A and EDTA. […] For this experiments 10 mM stock solutions of amastatin and bestatin are prepared in dimethylsulfoxide. These solutions are diluted 1:100 in heat-inactivated rabbit serum and incubated at 22° C. for 15 mins prior to addition of peptide. MBI 11B7CN is added to the serum at a final concentration of 100 μg/mL and incubated for 3 hrs at 22° C. After the incubation period, the serum samples are analyzed on an analytical C8 column (Waters Nova Pak C8 3.9×170 mm) with detection at 280 nm. In FIG. 13, MBI 11B7CN elutes at 25 min.

[2] = tested on: mammalian red blood cells; type: cell-based; details: for % Lysis: 37° C., 1 hour, A540 vs 100% lysed standard
sheep RBC = type: cell-based
[3] = type: physicochemical; details: for Conformation in buffer / Conformation in TFE: CD; for Conformation in TFE: phosphate buffer and 40% (v/v) trifluoroethanol
[4] = parameters: species or system mice; details: mouse, in vivo, ip, 40 mg/kg
[5] = type: in vitro ADME, sheep
[6] = type: physicochemical; details: 400 μg/mL
[7] = type: in vivo; details: intravenous single dose, isotonic saline, Swiss CD1 mice, 5 days observation
[8] = type: in vivo; details: Swiss CD-1 mice; for No. Surviving: cumulative
[9] = parameters: species or system mice; details: mouse, in vivo, iv
[10] = type: in vivo; details: intraperitoneal single dose, isotonic saline, Swiss CD1 mice, 5 days observation
[11] = parameters: species or system outbred ICR mice; details: mouse, in vivo, ip
[12] = type: in vivo, mice; details: subcutaneous, 5 days
[13] = parameters: species or system outbred ICR mice; details: mouse, in vivo, iv
[14] = type: in vivo, mice; details: iv
[15] = type: physicochemical; details: calcium and magnesium supplemented Mueller Hinton broth; visual inspection
[16] = 10 mM sodium phosphate buffer, pH 7.2
[17] = phosphate buffer and 40% (v/v) TFE

Amastatin
effect on degradation of MBI 11B7CN [1]: prevent the degradation

G N N R P V Y I P Q P R P P H P R I [Apidaecin IA, reference compound]
% Lysis [2]: 0.3%

Gramicidin-S [reference compound]
% lysis at 5 μg/ml (sheep RBC; 1% (v/v) sheep RBC, isotonic saline pH 6-7, 5 μg/ml peptide): 30%

I L K K W P W W P R R K [MBI 11G6ACN]
Conformation in buffer [3, 16]: Unordered
Conformation in TFE [3]: Unordered

I L K K W P W W P W R K [MBI 11B4ACN]
Conformation in buffer [3, 16]: Unordered
Conformation in TFE [3]: Unordered

I L K K W P W W P W R R I M [MBI 11D13H]
% Lysis [2]: 1.7%

I L K K W P W W P W R R K M [MBI 11D11H]
% Lysis [2]: 0.7%

I L K K W P W W P W R R K [MBI 11ACN]
Conformation in buffer [3, 16]: Unordered
Conformation in TFE [3]: Unordered

I L K K W P W W P W R R K [MBI 11CNY1]
Conformation in buffer [3, 16]: Unordered
Conformation in TFE [3]: Unordered

I L K K W P W W P W R R K [MBI 11CN]
blood level after 60 minutes [4]: non-detectable
peptide immediately released from formulation-peptide complex ([5]; on addition to the blood): up to 50%
apparent half-life of free peptide ([5]; sheep plasma, 100 μg/mL, 37° C.): 1.5 h
erythrocyte lysis [2]: substantial lysis
lysis [2]: 3.2%
free peptide in formulation [6]: < 10%
MTD [7]: <4 mg/kg
% Dead ([8]; 3 mg/kg single iv dose): 0%
Cumulative Dead ([8]; 3 mg/kg single iv dose): 0
No. Surviving ([8]; 3 mg/kg single iv dose): 12
% Dead ([8]; 5 mg/kg single iv dose): 0%
Cumulative Dead ([8]; 5 mg/kg single iv dose): 0
No. Surviving ([8]; 5 mg/kg single iv dose): 6
% Dead ([8]; 8 mg/kg single iv dose): 100%
Cumulative Dead ([8]; 8 mg/kg single iv dose): 6
No. Surviving ([8]; 8 mg/kg single iv dose): 0
% Dead ([8]; 10 mg/kg single iv dose): 100%
Cumulative Dead ([8]; 10 mg/kg single iv dose): 12
No. Surviving ([8]; 10 mg/kg single iv dose): 0
% Dead ([8]; 13 mg/kg single iv dose): 100%
Cumulative Dead ([8]; 13 mg/kg single iv dose): 18
No. Surviving ([8]; 13 mg/kg single iv dose): 0
LD50 ([8]; iv single dose): 7 mg/kg
highest dose giving 100% survival ([8]; iv single dose): 5 mg/kg
LD50 ([8]; single iv dose in saline): 7 mg/kg
LD90-100 ([8]; single iv dose in saline): 8 mg/kg
MTD ([8]; single iv dose in saline): 5 mg/kg
free circulating peptide in blood [9]: not detectable
LD90-100 [10]: 40 mg/kg
dose up to which no toxicity was shown [11]: 40 mg/kg
LD90-100 [12]: greater than 128 mg/kg
toxicity ([13]; 3 mg/kg): 100%
toxicity ([13]; 6.1 mg/kg): 10%
toxicity ([13]; 12 mg/kg): 100%
toxicity (mortality) of multiple injections ([14]; two injections of 4.1 mg/kg with a 10 minute interval): 60%
Result (mortality) ([14]; mouse, in vivo, 4.1 mg/kg): 66%
Result (toxicity) ([14]; mouse, in vivo, 4.1 mg/kg): 66% toxicity
secondary structure (CD) [3, 16]: unordered structures
secondary structure (CD) [3, 17]: unordered
secondary structure (CD) ([3]; phosphate buffer and liposomes): β-turn structure

I L K K W P W W P W R R K [MBI 11]
erythrocyte lysis [2]: substantial lysis
lysis [2]: 2.3%
Conformation in buffer [3, 16]: Unordered
Conformation in TFE [3]: β-turn
secondary structure (CD) [3, 17]: β-turn structure

I L K K W P W W P W R R [MBI 11G7ACN]
Conformation in buffer [3, 16]: Unordered
Conformation in TFE [3]: Unordered

I L K K W P W W P W R R k [MBI 11E2CN]
Conformation in buffer [3, 16]: Unordered
Conformation in TFE [3]: Unordered

I L K K W V W W P W R R K [MBI 11F3CN]
LD90-100 [10]: 80 mg/kg
RBC lysis grouping (sheep RBC; sheep RBC 1% (v/v), 5, 50 or 500 μg/ml, compared with MBI 11CN and Gramicidin-S): significantly less lytic than the other two variants
Conformation in buffer [3, 16]: ppII helix
Conformation in TFE [3]: Unordered

I L K K W W W P W R R K [MBI 11G4CN]
Conformation in buffer [3, 16]: Unordered
Conformation in TFE [3]: β-turn
secondary structure (CD) [3, 17]: β-turn structure

I L P W K W P W W P W R R [MBI 10CN]
erythrocyte lysis [2]: substantial lysis
lysis [2]: 3.9%
dose up to which no toxicity was shown [11]: 29 mg/kg
toxicity ([13]; 11 mg/kg): 40%
toxicity ([13]; 22 mg/kg): 100%
solubility in broth [15]: less soluble than MBI 11CN
Conformation in buffer [3, 16]: Unordered
Conformation in TFE [3]: Unordered

I L R R W P W W P W R R R [MBI 11B9ACN]
Conformation in buffer [3, 16]: Unordered
Conformation in TFE [3]: Unordered

I L R W P W W P W R R K [MBI 11B7CN]
LD90-100 [10]: >80 mg/kg
secondary structure (CD) [3, 16]: unordered structures
secondary structure (CD) [3, 17]: unordered
secondary structure (CD) ([3]; phosphate buffer and liposomes): β-turn structure

I L R W V W W V W R R K [MBI 11F4CN]
erythrocyte lysis / toxicity [2]: most insoluble and hemolytic
solubility in broth [15]: most insoluble
secondary structure (CD) [3, 16]: additional minima at 220 nm
Conformation in buffer [3, 16]: Unordered
Conformation in TFE [3]: slight α-helix
secondary structure (CD) [3, 17]: increases 60 -helicity

L K K W P W W P W R R K [MBI 11D1CN]
Conformation in buffer [3, 16]: Unordered
Conformation in TFE [3]: Unordered

W R I W K P K W R L P K W [MBI 11D18CN]
% Lysis [2]: 0.8%

bestatin
effect on degradation of MBI 11B7CN [1]: prevent the degradation

i L K K W P W W P W R R K [MBI 11E1CN]
Conformation in buffer [3, 16]: Unordered
Conformation in TFE [3]: Unordered

i L K K W P W W P W R R k [MBI 11E3CN]
LD90-100 [10]: 40 mg/kg
MTD [10]: <20 mg/kg
Conformation in buffer [3, 16]: ppII helix
Conformation in TFE [3]: Unordered
